# Measurements as given in patent US7288537B2, “Azetidine derivatives as CCR-3 receptor antagonists” (Novartis AG, priority 2002, dated 2007).
# Amino acid sequences for entries named in this document (tags omitted).
# UniProt P51677, whole entry: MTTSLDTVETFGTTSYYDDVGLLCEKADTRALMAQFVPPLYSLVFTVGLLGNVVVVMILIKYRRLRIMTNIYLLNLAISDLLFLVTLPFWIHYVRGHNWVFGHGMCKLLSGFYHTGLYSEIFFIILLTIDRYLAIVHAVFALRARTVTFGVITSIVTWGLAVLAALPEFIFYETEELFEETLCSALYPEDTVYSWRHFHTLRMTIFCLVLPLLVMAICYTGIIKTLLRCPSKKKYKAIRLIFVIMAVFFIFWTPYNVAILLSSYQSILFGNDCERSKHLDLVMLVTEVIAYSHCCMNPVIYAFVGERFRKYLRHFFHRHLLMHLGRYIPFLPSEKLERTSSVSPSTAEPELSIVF
# pIC50: −log10 of the molar value.
# Target: human CCR-3 (Homo sapiens, UniProt P51677)
# Assay: CCR-3 binding assay (SPA, [125I]-human eotaxin)
# Details: read-out: IC50, inhibition of binding of human eotaxin to human CCR-3, membranes of RBL-2H3 cells stably expressing CCR3, 4 hours at room temperature
# Method: In this assay the effect of agents of the invention on the binding of human eotaxin to human CCR-3 is determined. Recombinant cells expressing human CCR-3 are captured by wheatgerm agglutinin (WGA) polyvinyltoluidene (PVT) SPA beads (available from Amersham), through a specific interaction between the WGA and carbohydrate residues of glycoproteins on the surface of the cells. [^125I]-human eotaxin (available from Amersham) binds specifically to CCR-3 receptors bringing the [^125I]-human eotaxin in close proximity to the SPA beads. Emitted â-particles from the [^125I]-human eotaxin excite, by its proximity, the fluorophore in the beads and produce light.
# Preparation of Assay Buffer: 5.96 g HEPES and 7.0 g sodium chloride are dissolved in distilled water and 1M aqueous CaCl2 (1 ml) and 1M aqueous MgCl2 (5 ml) are added. The pH is adjusted to 7.6 with NaOH and the solution made to a final volume of 1 L using distilled water. 5 g bovine serum albumin and 0.1 g sodium azide are then dissolved in the solution and the resulting buffer stored at 4° C. A Complete™ protease inhibitor cocktail tablet (available from Boehringer) is added per 50 ml of the buffer on the day of use.
# Preparation of Homogenisation Buffer: Tris-base (2.42 g) is dissolved in distilled water, the pH of the solution is adjusted to 7.6 with hydrochloric acid and the solution is diluted with distilled water to a final volume of 1 l. The resulting buffer is stored at 4° C. A Complete™ protease inhibitor cocktail tablet is added per 50 ml of the buffer on the day of use.
# Preparation of membranes: Confluent rat basophil leukemia (RBL-2H3) cells stably expressing CCR3 are removed from tissue culture flasks using enzyme-free cell dissociation buffer and resuspended in phosphate-buffered saline. The cells are centrifuged (800 g, 5 minutes), the pellet resuspended in ice-cold homogenisation buffer using 1 ml homogenisation buffer per gram of cells and incubated on ice for 30 minutes. The cells are homogenised on ice with 10 strokes in a glass mortar and pestle. The homogenate is centrifuged (800 g, 5 minutes, 4° C.), the supernatant further centrifuged (48,000 g, 30 minutes, 4° C.) and the pellet redissolved in Homogenisation Buffer containing 10% (v/v) glycerol. The protein content of the membrane preparation is estimated by the method of Bradford (Anal. Biochem. (1976) 72:248) and aliquots are snap frozen and stored at −80° C.
# The assay is performed in a final volume of 250 μl per well of an Optiplate™ microplate (ex Canberra Packard). […] The resulting scintillations are counted using a Canberra Packard TopCount™ scintillation counter, each well being counted for 1 minute. […]
row,SMILES,pIC50
1,Cn1nc(C2CC2)cc1NC(=O)N[C@H](CO)CCN1CC(Oc2ccc(Cl)c(Cl)c2)C1,7.92
2,COc1cc(NC(=O)NC(CO)CCN2CC(C(=O)c3ccc(Cl)cc3)C2)cc(OC)c1 (stereo not shown),7.74
3,CCc1cc(NC(=O)N[C@H](CO)CCN2CC(Oc3ccc(Cl)cc3)C2)n(C(C)(C)C)n1,8.70
4,Cc1ccc(NC(=O)NC(CO)CCN2CC(Oc3ccc(Cl)cc3)C2)cc1 (stereo not shown),7.96
